These are literature values, as cited in publication PMC1190152, “Archazolid and apicularen: Novel specific V-ATPase inhibitors” (BMC Biochemistry, 2005).

Protein sequences, listed by entry. Tags and fused reporters are not part of them.
UniProt P31403, whole entry: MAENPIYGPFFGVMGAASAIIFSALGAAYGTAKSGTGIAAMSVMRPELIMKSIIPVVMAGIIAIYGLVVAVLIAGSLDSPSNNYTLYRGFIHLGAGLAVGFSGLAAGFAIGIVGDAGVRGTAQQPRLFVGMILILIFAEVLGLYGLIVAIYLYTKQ

The target in the data set is T1, V-ATPase holoenzyme from the midgut of the tobacco hornworm (Manduca sexta, UniProt P31403).
T1 construct: purified V-ATPase holoenzyme from the midgut of the tobacco hornworm; from tissue; host or cells: midgut of fifth instar Manduca sexta larvae
On the set-up: method as in PMID 12186879. Particulars: ref [10], cited from earlier work.

On to `CO/C1=C\C(C)=C\[C@@H](C)[C@@H](O)[C@@H](C)C/C(C)=C/C=C/[C@H](OC)[C@@H]([C@@H](C)[C@@H](O)[C@H](C)[C@@]2(O)C[C@@H](O)[C@H](C)[C@@H](C(C)C)O2)OC1=O` [bafilomycin A1, reference compound], for which the “IC50 per mg of protein, purified V-ATPase” value is listed as “ca. 0.5 nmol per mg of protein”. Besides, the IC50 (read-out: half-maximal inhibition concentration of purified V-ATPase) is roughly 10 nM.
